This is an account of results in patent US11015179B2, “Peptide having anti-viral effect and composition containing same” (priority 2015, dated 2021).

The subject of one assay is immune cells. Briefly: Distribution of immune cells (FACS) in whole HBV W4P genome-transgenic mice. The following applies: week 4. Type of assay: in vivo. As to the method: PEP1 is an HLA Class II-binding peptide derived from telomerase, and a 16-amino acid peptide triggering cytotoxic T-cell and helper T-cell immune responses. Therefore, to observe a change in the distribution of renal immune cells by the PEP1 peptide, transgenic mice were prepared by injecting the whole HBV W4P variant genome, on week 4, the whole blood was collected from the mice, and immune cells were isolated from the kidneys of the mice and then stained with lymphocyte markers (B cells (CD19B), CD4, CD8, NK1.1 cells) and myeloid cell markers (DC (CD11c), a macrophage marker (F4/80), a neutrophil marker (Ly-6G), a monocyte marker (Gr1)) according to an extracellular cell surface staining method for FACS analysis.

The test system of assay [1] is JFH-1 cells. Nature of the assay: Flow cytometry of FITC-conjugated PEP1 penetration into JFH-1 cells. Type of assay: cell-based, human. (In general: In flow cytometry, cells or beads pass a laser one at a time.)
For assay [2], the system named is HBV. Nature of the assay: Virion production (real-time PCR of HBV DNA) in W4P-transfected HepG2 cell line. Type of assay: cell-based, hepatitis B virus. As to the method: To observe the potential for virion proliferation of whole HBV containing W4P, virion DNA was extracted from the entire supernatant while the medium was changed every 24 hours by the above-described method, and subjected to real-time quantitative PCR using a Quantitech SYBR Green Master-Mix kit (Qiagen). The entire supernatant was centrifuged using an ultracentrifuge equipped with an SW28 swing rotor at 20,000 rpm for 2 hours to precipitate the virus, and the precipitated viral pellets were suspended with 200 μl of sterilized DW. To extract virion DNA, the viral cells were treated with 100 μg/ml RNase A, 100 μl of a lysis buffer (0.25% SDS, 0.25M Tris, 0.25M EDTA), and 500 μg/ml of proteinase K for 2 hours at 37° C. Afterward, DNA was extracted by a phenol:chloroform extraction method. To see the capacity for viral proliferation, real-time PCR primers SF-Real (5′-[…]-3′, SEQ ID NO: 9) and SR-Real (5′-[…]-3′, SEQ ID NO: 10) targeting small surface area regions of HBV were designed. 12.5 μl IQ SYBR Green Supermix (Biorad, Calif., USA), 1.25 μl SF-Real primer, 1.25 μl SR-Real primer, 9 μl distilled water, and 1 μl cDNA were added to a 96-well plate. Real-time PCR was performed at 40 cycles of 5 min at 95° C., 15 sec at 94° C., and 15 sec at 60° C. using the Exicycler™ 96 Real-Time Quantitative Thermal Block System (Bioneer Co., Korea), and the temperature was increased from 53° C. to 90° C. by modulating to 0 sec at 95° C., 30 sec at 53° C. and modulating by 0.1° C. per second to analyze a melting curve.
(§1) To observe the virion production in the supernatant after the inhibition of HBsAg secretion by the PEP1 peptide was observed, virions were collected from the supernatant obtained by the above-described method using PEG 6000, and HBV DNA was obtained using a virus DNA prep kit (Intron, Korea), and then quantified by real-time PCR.
In the previous experiment, to observe the virion production according to peptide concentration in the supernatant, real-time PCR was performed by harvesting virions from the supernatant.

The test system of assay [3] is JFH-1 cells. Briefly: Intracellular ROS production (DCF-DA) in JFH-1 cells. Type of assay: cell-based, human. As to the method:
One day after 5×10^4 (cells/well) cells of the JFH-1 cell line were seeded into a 24-well plate, intracellular ROS production was measured according to various experimental materials. Measurement of intracellular activity was carried out by staining the cells with dichlorodihydrofluoresein diacetate (DCF-DA; Invitrogen), and fluorescence measurement of ROS production was carried out at […] using Infinte M2000 Tecan (Tecan Trading AG, Switzerland). All fluorescent units were expressed as arbitrary units, and as a positive control group, hydrogen peroxide (H2O2, 2 mM) was used. ROS measurement for the Huh7.5 cells was also carried out by the same procedure as described above.
As a control group, a human HCC cell line, and Huh7.5 and JFH-1 cell lines were treated with known representative antioxidants such as NAC (2 Mm), PDTC (100 μM), and vitamin E (10 μM) and then compared.
The inventors inhibited the interaction with HSP90 by two methods: a use of antibodies against […] and antibodies against HSP90 or a use of an inhibitor occupying a catalytic position (ATP-binding pocket in the N-terminal of HSP90).

The subject of another assay is HNF4α. Nature of the assay: HNF4α expression by western blotting in W4P-transfected HepG2 cell line. Type of assay: cell-based, human. The following applies: HepG2, 10 μM, 48 hours. As for the experimental part: It is known that the hepatocyte nuclear factor 4α binds to HBV enhancer I and thus plays a critical role in HBV synthesis. Therefore, 48 hours after the whole HBV W4P genome was injected into a HepG2 cell line and treated with 10 μM PEP1, proteins were extracted from the pellets, and subjected to western blotting. As a control group, a mock vector was injected and compared.
(In general: Immunoblotting shows a protein as a band on a membrane.)

The next assay relates to HSP90 and FKBP8. Briefly: Immunoprecipitation of HSP90 and FKBP8 in JFH-1 cells. Type of assay: cell-based, human. Conditions: PEP1 10 μM, 48 hours, vs control. As to the method: For immunoprecipitation, 400 μg of a cell lysate was pre-washed with a protein A/G plus-agarose bead immunoprecipitant (Santa Cruz Biotechnology) for two hours and then centrifuged, followed by removing the beads. The supernatant was cultured with 4 μg of related antibodies, 20 μl of beads and a lysis buffer overnight at 4° C. The immunoprecipitation was prepared for immunoblotting of anti-HSP90 (Cell Signaling Technology) antibodies and FKBP8 (Thermo Fisher Scientific).
It has been known that HSP90 is involved in forming a complex of NS5A and FKBP8 for HCV RNA replication. Therefore, it was investigated if the inhibition of the HCV RNA replication by PEP1 is caused by the inhibition of the formation of a replication complex. The binding between HSP90 and FKBP8 was observed by treating the JFH-1 cells with PEP1. Specifically, the JFH-1 cells were cultured with PEP1 (10 μM) for 48 hours. Afterward, the proteins were subjected to immunoprecipitation with anti-FKBP8 antibodies or anti-HSP90 antibodies. Endogenous expression of HSP90 and FKBP8 was detected in untreated JFH-1 cells.

For assay [4], the system named is HBV. Nature of the assay: HBsAg ELISA in whole HBV W4P genome-transfected HepG2 cell line. Type of assay: cell-based, hepatitis B virus. The following applies: 48 hours.
Assay [5] deals with HBV. Nature of the assay: Virion production (real-time PCR of HBV DNA) in W4P-transfected Huh7.5 cell line. The following applies: Huh7.5, 10 μM, 48 hours. Type of assay: cell-based, hepatitis B virus. As for the experimental part: To observe the potential for virion proliferation of whole HBV containing W4P, virion DNA was extracted from the entire supernatant while the medium was changed every 24 hours by the above-described method, and subjected to real-time quantitative PCR using a Quantitech SYBR Green Master-Mix kit (Qiagen). The entire supernatant was centrifuged using an ultracentrifuge equipped with an SW28 swing rotor at 20,000 rpm for 2 hours to precipitate the virus, and the precipitated viral pellets were suspended with 200 μl of sterilized DW. […] Real-time PCR was performed at 40 cycles of 5 min at 95° C., 15 sec at 94° C., and 15 sec at 60° C. using the Exicycler™ 96 Real-Time Quantitative Thermal Block System (Bioneer Co., Korea), and the temperature was increased from 53° C. to 90° C. by modulating to 0 sec at 95° C., 30 sec at 53° C. and modulating by 0.1° C. per second to analyze a melting curve.
as §1
(In general: Quantitative PCR measures a nucleic acid by following its amplification.)

Entries after “also recorded” stand apart in the source; their conditions may differ.

With `CC[C@H](C)[C@H](NC(=O)[C@H](Cc1ccccc1)NC(=O)[C@H](CCCNC(=N)N)NC(=O)[C@H](CC(C)C)NC(=O)[C@H](CCCNC(=N)N)NC(=O)[C@H](CO)NC(=O)[C@@H](NC(=O)[C@H](CC(C)C)NC(=O)[C@H](CC(C)C)NC(=O)[C@H](C)NC(=O)[C@@H]1CCCN1C(=O)[C@H](CCCNC(=N)N)NC(=O)[C@H](C)NC(=O)[C@@H](N)CCC(=O)O)[C@@H](C)O)C(=O)N1CCC[C@H]1C(=O)N[C@@H](CCCCN)C(=O)O` [PEP1, EARPALLTSRLRFIPK], in the assay on immune cells, the “Cell distribution of myeloid-derived cells (DCs, macrophages, neutrophils, monocytes)” value was “no effect on cell distribution” and the “Distribution of lymphocytes (B cells, CD4, CD8, NK1.1 cells)” value is on record as “no significant difference”. Also, the “Penetration into JFH-1 cells in the presence of PDTC” value in the assay with JFH-1 cells [1] is recorded as “decreased”. In the assay with HBV [2] (HepG2, 10 μM, 48 hours), the “Virions produced in the supernatant” value was “inhibitory effect”. The “Virion production, reduction effect” value with HBV [2] (HepG2, at 10 μM) is reported as “approximately 48%”. In addition, in the assay on HBV [2] (HepG2, high concentration of 100), the Virion production result is reported as “not effective”. In addition, the Virion production result in the assay with HBV [2] (HepG2, low concentration of 0.01 μM) was “not effective”. Moreover, in the assay on JFH-1 cells [3], the “ROS levels in the presence of anti-HSP70 antibodies” value is “had an inhibitory effect on ROS levels”, the “ROS levels in the presence of anti-HSP90 antibodies” value was “did not have such an effect” and the “ROS levels with control antibodies (isotype)” value is “inhibition caused by PEP1 was observed”. Further, the “Antioxidant activity of PEP1 with increasing concentrations of PDTC” value with JFH-1 cells [3] (2 hours) is listed as “gradually decreased”. In the assay on JFH-1 cells [3] (2 hours, PEP1 0.001-10 μM, NAC, PDTC 100 μM, vitamin E 10 μM, vs vehicle), the ROS production entry is “considerably and dose-dependently inhibits ROS production; also recorded: concentration-dependently reduced ROS production”. The “Antioxidant activity compared with conventional antioxidants” value in the assay with JFH-1 cells [3] (PEP1 at 1 and 10 μM) was “equaled NAC, PDTC and vitamin E”. Further, the HNF4α expression entry in the assay with HNF4α is listed as “more effectively reduced by the PEP1 peptide than 3TC”. Also, the “Co-precipitation of HSP90 by FKBP8” value in the assay on HSP90 and FKBP8 is on record as “reduced”. In the assay on HBV [4] (HepG2, 0.01 μM or higher), the HBsAg in pellets result is recorded as “showed inhibitory effects”. Further, the “Intracellular and extracellular HBsAg levels” value in the assay with HBV [4] (HepG2, 10 μM) is “exhibited inhibitory effects”. The HBsAg in supernatants entry with HBV [4] (HepG2, at 100 μM) is on record as “showed no effect”. The HBsAg in supernatants entry in the assay with HBV [4] (HepG2, until 10 μM) is given as “showed inhibitory effects”. In addition, the Virion secretion result in the assay with HBV [5] was “no effect on virion secretion”.
